Values of other authors as cited in US20150024952A1, “MOLECULAR PROFILING FOR CANCER” (priority 2010, published 2015).

Test system: HER2 positive breast cancers
Settings: unselected HER2+ patients

Substance: trastuzumab
- HER2 positive breast cancers/patients that respond to treatment: about 30%
